Values quoted from earlier work as cited in paper PMC10494213 (iScience, 2023).

Settings: pH 7.4; ref http://www.chemspider.com/Chemical; cited from earlier work

SMILES: NC(=O)N1c2ccccc2C=Cc2ccccc21 [CMZ, Carbamazepine]
- Dow: 2.77
